Sampled rows, rich in hits. Any-hit rate of the full collection: about 3.7%.
Nrf2 block: Nrf2 pathway inhibition; A549 ARE-Fluc reporter, luciferase luminescence, 18-24 h; Potency, µM (highest dose often 46 µM), for the others: at the top dose activity change, negative = inhibition, most hits filed as inhibitors; actives 2.1% (n = 360,000); note: potency is the fitted concentration of half-maximal effect; % is set by controls: 0 for no effect and ±100 for the full control effect; nearly all actives have a fitted effect of over 60% in size
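Nrf2 function is reported as luminescence of an ARE-controlled luciferase in A549 cells. Compounds were tested at several concentrations, and a CellTiter-Fluor read on the same wells flagged cytotoxicity.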
p53 reactivation: re-activators of mutant p53 | H1299 p53-A138V BP100-luciferase reporter, luminescence, 24 h | Potency, µM (titrated, usually from 92.2 µM), without a hit: at the top dose activity change, positive = activation, usual class: activators | actives 0.063% (n = 320,000); note: potency is the fitted concentration of half-maximal effect; % of control where 0% means no effect; nearly all actives have a fitted effect of over 45% in size
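p53-null H1299 cells stably carrying temperature-sensitive p53-A138V and a BP100-luciferase reporter were pinned with compounds (4-point, 1:5 series) and held 24 hrs at 37 deg C. Luminescence was read 10 min after detection reagent.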
miR-21 reporter: miR-21 reporter, rising signal | HeLa miR-21 FLuc reporter, luciferase, 48 h | Potency, µM (doses to about 38.3 µM), inactives show at the top dose reporter change, positive = more light | 340,000 tested, under 10 active | AID 2288; active = well fitted rising curve with a large enough effect; inconclusive = small, poorly fitted or top-dose-only effect; inactive = no such curve, though single readings can be large or run the other way;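 note: % of control where 0% means no effect; miR-21 action dims this reporter so a rising signal means less miR-21 action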
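Luminescence from a firefly luciferase reporter carrying a miR-21 binding site downstream, stably expressed under a CMV promoter in HeLa cells that make miR-21 endogenously, reports miRNA modulation after 48 h compound exposure up to approximately 40uM final.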
ClpP mod: qHTS Assay for Activators of ClpP; purified B. subtilis ClpP, FRET peptide cleavage, 20 min; Potency, µM (top dose mostly 57.5 µM), for the others: top-dose activity change, negative = active; actives 1.9% (n = 340,000); active = well fitted falling curve with a large enough effect; inconclusive = small, poorly fitted or top-dose-only effect; inactive = no such curve, though single readings can be large or run the other way; note: potency is the fitted concentration of half-maximal effect; the source files actives as falling curves though it sought activators and does not explain the sign; nearly all actives have a fitted effect of over 65% in size
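Buffer: 100 mM Tris/HCl pH8, 100 mM KCl, 0.05% low protease BSA, 2.5% glycerol, 0.01% Tween-20. ClpP 10 microg/mL final; 20 min RT; delta FRET normalized to ADEP and DMSO controls.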
A549 tox: kills or reduces viability of A549 cells in Nrf2 counter-screen. actives 0.16% (n = 390,000). A549 ARE-Fluc cells, CellTiter-Fluor viability, 18-24 h. Potency, µM (series often up to 46 µM), inactives show top-dose activity change, negative = cytotoxicity, hits mostly inhibitors; note: potency is the fitted concentration of half-maximal effect; % is set by controls: 0 for no effect and ±100 for the full control effect
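A549 ARE_Fluc cells in 5% FBS OPTI-MEM were exposed to compounds in concentration-response for 18-24 h at 37 deg C. Viability was read by CellTiter-Fluor fluorescence (Ex 405/Em 525) after 30 min, before the luciferase read.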
Nrf2 ARE act: activates Nrf2 signaling. AREc32 ARE-luciferase reporter (MCF7-derived line), luminescence, 24 h. Potency, µM (series often up to 46.1 µM), for the others: at the top dose activation, hits mostly activators. actives 0.31% (n = 410,000). AID 624171; note: potency is the fitted concentration of half-maximal effect; % of control where 0% means no effect; nearly all actives have a fitted effect of over 65% in size
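Nrf2 activation is followed as ARE-luciferase induction in the AREc32 line after one day of compound treatment; luminescence is read with Steady-Glo.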
* = called active by the depositor; ? = inconclusive; . = not tested or not shown; [ ] = dose if it differs, or a comment. Unless noted, calls come from the whole dose curve; as a rule, active = well fitted curve in the direction sought with a large enough effect; inconclusive = small, poorly fitted or top-dose-only effect, or another doubt; inactive = no such curve, though single readings can be large; an effect the other way counts as inactive or inconclusive.

Compound	p53 reactivation	Nrf2 block	A549 tox	Nrf2 ARE act	ClpP mod	miR-21 reporter
CC(C)(C)NS(=O)(=O)c1ccc(NC(=O)C(Sc2ccccc2)c2ccccc2)cc1 (stereo not given)	0%	9.2µM*	?	0%	4%	23%
CC(=O)N(C)c1ccc(NC(=O)C(Sc2ccccc2)c2ccccc2)cc1 (stereo not given)	-1%	?	-13%	3%	.	-6%
N#CC1=C(N)N(c2ccccc2)C(c2ccco2)C1(C#N)C#N (stereo not given)	-25%	-20%	-8%	5%	14µM*	-30%
N#CC1=C(N)N(c2ccccc2)C(c2cccc([N+](=O)[O-])c2)C1(C#N)C#N (stereo not given)	-27%	-21%	-12%	0%	1%	-16%
Cc1cccc(N2C(S)=C(C#N)C(=O)NC2c2ccco2)c1 (stereo not given)	-3%	-4%	-5%	3%	.	6%
Cc1cccc(N2C(N)=C(C#N)C(C#N)(C#N)C2c2ccccc2)c1 (stereo not given)	.	?	-5%	2%	14µM*	0%
CCn1nnc2cc(C(=O)Nc3ccc(Cl)cc3C)ccc21	.	59%	21%	-1%	-1%	-17%
Cc1cc2c(cc1S(=O)(=O)N1CCc3ccccc31)NC(=O)CO2	0%	23µM*	?	3%	.	21%
O=C1COc2ccc(S(=O)(=O)N3CCc4ccccc43)cc2N1	-3%	-24%	-2%	0%	1%	7%
COc1ccccc1-c1nc(C(N)=O)c2[nH]c(=O)n(-c3cccc(C)c3)c2n1	-25%	?	3%	4%	20µM*	-13%
COCCn1c(-c2ccc(NC(C)=O)cc2)nc2c1c(=O)[nH]c(=O)n2CC(C)C	14%	2%	-2%	0%	.	-8%
CCCCn1c(=O)[nH]c(=O)c2c1nc(-c1ccc(-c3ccccc3Br)o1)n2CCOC	2%	-21%	-2%	4%	32µM*	-4%
COCCn1c(-c2ccc(-c3ccccc3Cl)o2)nc2c1c(=O)[nH]c(=O)n2CC(C)C	-5%	?	-7%	0%	4µM*	-4%
CCCCn1c(-c2ccc(Br)cc2F)nc2c1c(=O)[nH]c(=O)n2CC(C)C	-6%	21µM*	?	5%	.	1%
O=C(CSc1nnc(-c2cccs2)o1)c1cccs1	17%	?	0%	6%	1%	-45%
CN(C)C(=O)CSc1nnc(-c2cc(-c3cccs3)nc3ccccc23)o1	-5%	?	-14%	7%	25µM*	5%
Cc1cc(C(=O)CSc2nnc(-c3cccs3)o2)c(C)n1-c1ccccc1	-14%	21µM*	-3%	-1%	1%	10%
Cc1c(/C=N/NC(=O)c2ccccc2O)c2ccccn2c1C(=O)c1ccc(F)cc1	18%	21µM*	18µM*	3%	?	-12%
Cc1c(/C=N/NC(=O)c2ccc(O)cc2)c2ccccn2c1C(=O)c1ccc(F)cc1	12%	?	?	4%	0%	-9%
Cc1sc2ncnc(SCc3ccco3)c2c1C	-18%	-9%	9%	3.2µM*	-2%	-3%
CS/C(=N\S(=O)(=O)c1cccs1)Nc1cccc(Cl)c1C	-3%	14%	14%	-1%[9.22 µM]	1%	-3%
CS/C(=N\S(=O)(=O)c1cccs1)Nc1ccc(F)c(Cl)c1	5%	6%	20%	3%	20µM*	-12%
N#Cc1ccccc1OC1=NS(=O)(=O)c2ccccc21	.	0%	12%	.	.	.
CC1=C(NCCc2ccccc2)CCC1=O	0%	.	-1%	-1%	-1%	3%
CCCNC1=C(C)C(=O)CC1	2%	1%	1%	0%	32µM*	-1%

Three of the compounds above, field by field:
> CCCNC1=C(C)C(=O)CC1
- p53 reactivation: 2%
- Nrf2 block: 1%
- A549 tox: 1%
- Nrf2 ARE act: 0%
- ClpP mod: 32µM*
- miR-21 reporter: -1%

> CS/C(=N\S(=O)(=O)c1cccs1)Nc1ccc(F)c(Cl)c1
- p53 reactivation: 5%
- Nrf2 block: 6%
- A549 tox: 20%
- Nrf2 ARE act: 3%
- ClpP mod: 20µM*
- miR-21 reporter: -12%

> CS/C(=N\S(=O)(=O)c1cccs1)Nc1cccc(Cl)c1C
- p53 reactivation: -3%
- Nrf2 block: 14%
- A549 tox: 14%
- Nrf2 ARE act: -1%[9.22 µM]
- ClpP mod: 1%
- miR-21 reporter: -3%

Assay outcomes from PubChem.
